According to patent US20130267547A1, “PRODRUGS UTILIZING A TRANSPORTER-DIRECTED UPTAKE MECHANISM” (VIRGINIA COMMONWEALTH UNIVERSITY, priority 2010, published 2013):

Tested on: BeWo cells
Assay: Uptake of 3H-lopinavir, 3H-succinyl-lopinavir and 3H-carnitine-succinyl-lopinavir by BeWo cells, with and without transport inhibitors
Settings: 10 minutes at 37° C.
Protocol: FIG. 10. […] BeWo cells (passage 38) were incubated with the compounds for 10 minutes at 37° C. or 4° C. in Dulbecco's phosphate buffered saline containing 0.05% bovine serum albumin. After incubation, the cells were washed with the cold buffer (lacking the compounds), and compounds were extracted from the cells into methanol followed by liquid scintillation analysis.
Specifically, bromosulfophthalein (BSP) is an inhibitor of several organic anion transporters (OATs; gene family SLC22A), as well as organic anion transporting polypeptides (OATPs; gene family SLCO). […] Finally, taurocholate is a classic substrate for bile salt transporters, including the sodium-dependent taurocholate transporter (NTCP; SLC10A1), the apical bile salt transporter (ASBT; SLC10A2), and certain OATPs.
The BeWo cell line is originally derived from a human choriocarcinoma. The BeWo cell line (Schwartz clone; passage 30) was a gift. BeWo cells in these studies is used between passages 30-70. BeWo cells are cultured in high glucose Dulbecco's modified Eagle's medium (DMEM) supplemented with 10% heat inactivated fetal bovine serum (FBS).

Carnitine-succinyl-lopinavir [CS-LPV]
Uptake compared with LPV uptake, in words: significantly less than LPV uptake; also recorded: very low, worse than that of LPV

Entries after “also recorded” stand apart in the source; their conditions may differ.
